The values that follow come from PubChem BioAssay AID1347080 (ICCB-Longwood Screening Facility, Harvard Medical School, 2019).

Only a part is listed here, and it is no random draw. Activity calls are given as the source filed them.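 How the source made its calls: active means compounds whose cell count with miR-34 switched on is under 0.7 times the count with it off; inactive means the rest.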

A short description of the assay: sensitizers of A549 cells to miR-34 induction, primary screen, imaging, A549 dox-inducible miR-34, nuclei and caspase counts (AID 1347080). Further: test concentration not given here. Conditions: A549 miR-34 inducible, Hoechst nuclei count, 48 h; stronger effect = lower value; cell number ratio, induced over uninduced.
In the case of `CN(C(=O)Cc1ccc(Cl)c(Cl)c1)[C@@H]1CCCC[C@H]1N1CCCC1`, the fold change was inactive: 0.982.
Take `CN(C(=O)Cc1ccccc1)[C@@H]1CC[C@]2(CCCO2)C[C@H]1N1CCCC1`: the fold change was inactive: 0.952.
As to `NC(=O)Nc1ccc([As](=O)(O)O)cc1`, the fold change is inactive: 0.842.
With `CN(C(=O)Cc1ccc(Cl)c(Cl)c1)[C@@H]1CC[C@]2(CCCO2)C[C@H]1N1CCCC1`, the fold change was inactive: 1.01.
The result for `CN(C(=O)Cc1ccc(Cl)c(Cl)c1)[C@@H]1CCCC[C@@H]1N1CCCC1` reads inactive: 1.05.
For `O=C(OC1CN2CCC1CC2)c1ccccc1` (stereo not drawn) the value was inactive: 0.973; for `O=C(O[C@H]1CN2CCC1CC2)C1NCc2ccccc2[C@@H]1c1ccccc1` (stereo partly drawn), inactive: 0.93.
Take `O=P(O)(O)F`: the fold change is inactive: 0.927.
